Experimental data: patent publication US20140044713A1

Amino acid sequences for entries named in this document (tags omitted). Residues count along the entry.
UniProt O75197, 32-1615: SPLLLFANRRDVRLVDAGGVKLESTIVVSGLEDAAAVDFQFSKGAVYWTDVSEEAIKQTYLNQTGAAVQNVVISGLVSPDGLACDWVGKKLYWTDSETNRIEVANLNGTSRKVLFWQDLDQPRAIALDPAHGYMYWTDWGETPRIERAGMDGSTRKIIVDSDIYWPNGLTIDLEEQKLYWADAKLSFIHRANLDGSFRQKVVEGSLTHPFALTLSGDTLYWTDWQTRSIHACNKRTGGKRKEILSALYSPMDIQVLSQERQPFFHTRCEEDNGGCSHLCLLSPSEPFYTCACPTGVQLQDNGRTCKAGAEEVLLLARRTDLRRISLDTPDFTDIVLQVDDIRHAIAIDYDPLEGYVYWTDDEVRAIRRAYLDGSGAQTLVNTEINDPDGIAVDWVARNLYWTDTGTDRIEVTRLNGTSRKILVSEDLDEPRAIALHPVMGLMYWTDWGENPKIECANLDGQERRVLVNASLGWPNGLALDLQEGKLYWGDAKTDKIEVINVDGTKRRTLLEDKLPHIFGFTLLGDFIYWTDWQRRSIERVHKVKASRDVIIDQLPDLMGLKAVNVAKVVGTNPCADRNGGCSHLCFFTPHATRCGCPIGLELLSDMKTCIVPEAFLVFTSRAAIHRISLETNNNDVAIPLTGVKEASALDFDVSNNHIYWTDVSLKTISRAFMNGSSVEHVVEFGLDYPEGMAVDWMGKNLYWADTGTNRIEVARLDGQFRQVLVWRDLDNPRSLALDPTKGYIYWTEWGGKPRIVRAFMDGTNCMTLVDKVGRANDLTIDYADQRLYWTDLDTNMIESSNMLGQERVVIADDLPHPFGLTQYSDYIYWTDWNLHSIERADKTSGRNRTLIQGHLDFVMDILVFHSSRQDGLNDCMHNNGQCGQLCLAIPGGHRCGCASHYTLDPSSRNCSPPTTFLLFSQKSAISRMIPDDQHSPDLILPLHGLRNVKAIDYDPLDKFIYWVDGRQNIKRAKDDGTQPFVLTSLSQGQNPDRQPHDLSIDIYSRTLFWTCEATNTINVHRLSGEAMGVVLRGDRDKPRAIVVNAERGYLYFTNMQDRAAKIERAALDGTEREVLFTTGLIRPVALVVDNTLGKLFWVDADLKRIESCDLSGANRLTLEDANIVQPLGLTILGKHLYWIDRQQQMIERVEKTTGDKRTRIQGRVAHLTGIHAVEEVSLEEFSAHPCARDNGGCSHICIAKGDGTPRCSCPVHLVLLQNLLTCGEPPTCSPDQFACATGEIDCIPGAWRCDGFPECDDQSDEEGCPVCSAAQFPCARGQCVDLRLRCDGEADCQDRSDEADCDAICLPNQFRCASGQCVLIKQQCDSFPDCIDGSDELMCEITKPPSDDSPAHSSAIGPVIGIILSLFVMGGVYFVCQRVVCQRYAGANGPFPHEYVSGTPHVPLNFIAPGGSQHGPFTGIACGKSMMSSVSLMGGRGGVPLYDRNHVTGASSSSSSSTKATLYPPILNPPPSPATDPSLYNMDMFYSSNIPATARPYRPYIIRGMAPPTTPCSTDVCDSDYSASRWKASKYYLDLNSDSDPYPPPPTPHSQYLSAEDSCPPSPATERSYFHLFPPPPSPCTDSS
UniProt P41221, 62-380 limits assumed: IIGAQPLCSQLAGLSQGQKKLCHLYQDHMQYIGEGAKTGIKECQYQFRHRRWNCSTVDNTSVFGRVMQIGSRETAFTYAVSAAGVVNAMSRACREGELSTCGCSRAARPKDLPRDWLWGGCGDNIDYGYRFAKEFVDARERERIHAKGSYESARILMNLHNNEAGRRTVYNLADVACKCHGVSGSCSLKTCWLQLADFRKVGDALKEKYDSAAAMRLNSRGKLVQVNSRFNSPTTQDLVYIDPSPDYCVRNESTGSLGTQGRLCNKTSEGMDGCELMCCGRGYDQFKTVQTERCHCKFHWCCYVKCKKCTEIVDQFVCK
UniProt O75581, 20-1613: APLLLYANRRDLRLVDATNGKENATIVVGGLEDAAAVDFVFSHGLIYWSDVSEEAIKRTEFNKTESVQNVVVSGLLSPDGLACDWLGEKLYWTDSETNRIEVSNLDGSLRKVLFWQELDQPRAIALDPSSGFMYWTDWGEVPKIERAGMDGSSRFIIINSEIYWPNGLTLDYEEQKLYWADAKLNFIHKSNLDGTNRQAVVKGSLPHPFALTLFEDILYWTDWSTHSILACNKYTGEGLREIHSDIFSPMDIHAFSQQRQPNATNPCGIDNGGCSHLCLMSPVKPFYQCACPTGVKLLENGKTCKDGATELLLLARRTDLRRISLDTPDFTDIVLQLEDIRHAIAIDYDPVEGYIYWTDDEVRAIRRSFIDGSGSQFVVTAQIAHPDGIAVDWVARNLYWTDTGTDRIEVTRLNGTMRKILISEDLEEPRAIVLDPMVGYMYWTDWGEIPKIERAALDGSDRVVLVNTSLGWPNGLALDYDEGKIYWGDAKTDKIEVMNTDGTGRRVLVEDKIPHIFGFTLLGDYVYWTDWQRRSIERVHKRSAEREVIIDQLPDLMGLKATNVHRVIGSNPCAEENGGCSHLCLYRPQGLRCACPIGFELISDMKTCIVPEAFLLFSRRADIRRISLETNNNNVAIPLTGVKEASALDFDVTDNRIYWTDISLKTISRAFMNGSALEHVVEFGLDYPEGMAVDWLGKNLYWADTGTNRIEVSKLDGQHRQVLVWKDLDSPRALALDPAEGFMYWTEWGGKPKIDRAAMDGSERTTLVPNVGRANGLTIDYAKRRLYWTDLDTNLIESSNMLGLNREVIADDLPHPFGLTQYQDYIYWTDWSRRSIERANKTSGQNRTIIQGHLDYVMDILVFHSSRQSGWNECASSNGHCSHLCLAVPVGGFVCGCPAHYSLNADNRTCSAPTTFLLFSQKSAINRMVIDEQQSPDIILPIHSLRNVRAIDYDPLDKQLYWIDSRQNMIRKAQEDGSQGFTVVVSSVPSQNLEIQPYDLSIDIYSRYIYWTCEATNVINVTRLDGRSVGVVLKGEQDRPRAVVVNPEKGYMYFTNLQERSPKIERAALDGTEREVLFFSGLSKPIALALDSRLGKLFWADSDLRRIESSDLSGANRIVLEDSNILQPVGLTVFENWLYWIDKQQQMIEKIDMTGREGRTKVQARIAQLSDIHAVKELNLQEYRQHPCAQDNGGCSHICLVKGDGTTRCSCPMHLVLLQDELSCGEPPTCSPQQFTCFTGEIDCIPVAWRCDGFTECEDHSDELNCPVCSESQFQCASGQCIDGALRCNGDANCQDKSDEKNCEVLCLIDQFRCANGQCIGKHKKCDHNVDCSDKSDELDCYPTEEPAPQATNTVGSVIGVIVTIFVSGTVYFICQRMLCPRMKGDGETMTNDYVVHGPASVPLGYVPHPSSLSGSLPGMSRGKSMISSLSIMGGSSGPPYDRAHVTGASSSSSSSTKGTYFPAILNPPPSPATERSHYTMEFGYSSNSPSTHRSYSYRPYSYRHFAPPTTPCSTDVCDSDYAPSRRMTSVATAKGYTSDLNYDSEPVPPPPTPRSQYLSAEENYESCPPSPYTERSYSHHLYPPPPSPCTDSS

Key:
[1] = molecular target: LRP5 (endogenous) (human) (UniProt O75197); test: TAP (anti-FLAG, anti-HA) + mass spectrometry, bait transfected in 293T cells, Exp 1, prey row LRP5
[2] = molecular target: Lgr4 (endogenous, or expression construct whose tag is not stated) (human) (UniProt Q9BXB1); test: TAP (anti-FLAG, anti-HA) + mass spectrometry, bait transfected in 293T cells, Exp 1, prey row LGR4
Wnt5a (human) = Wnt5a (human) (UniProt P41221); test: TAP (anti-FLAG, anti-HA) + mass spectrometry, bait transfected in 293T cells, Exp 1, prey row Wnt5a
[3] = molecular target: LRP6 (endogenous) (human) (UniProt O75581); test: TAP (anti-FLAG, anti-HA) + mass spectrometry, bait transfected in 293T cells, Exp 1, prey row LRP6

# unique peptides [1]: 1
MASCOT Protein score (MudPit) [1]: 143
assigned spectra [1]: 3
# unique peptides [2]: 7
MASCOT Protein score (MudPit) [2]: 67
assigned spectra [2]: 8
# unique peptides (Wnt5a (human)): 8
MASCOT Protein score (MudPit) (Wnt5a (human)): 127
assigned spectra (Wnt5a (human)): 14
# unique peptides [3]: 31
MASCOT Protein score (MudPit) [3]: 1220
assigned spectra [3]: 64
Substance: double-tagged Frizzled7 (Frz7-FH) (from UniProt O75084 33-574) (receptor)
